Data on one compound can be found in US10501780B2, “Compositions for in situ nucleic acid analysis” (APPLIED BIOSYSTEMS, LLC, priority 2007, dated 2019).

The chains behind the UniProt entries cited, without tags or fusion partners. Residues count along the entry.
UniProt P06873, 106-384: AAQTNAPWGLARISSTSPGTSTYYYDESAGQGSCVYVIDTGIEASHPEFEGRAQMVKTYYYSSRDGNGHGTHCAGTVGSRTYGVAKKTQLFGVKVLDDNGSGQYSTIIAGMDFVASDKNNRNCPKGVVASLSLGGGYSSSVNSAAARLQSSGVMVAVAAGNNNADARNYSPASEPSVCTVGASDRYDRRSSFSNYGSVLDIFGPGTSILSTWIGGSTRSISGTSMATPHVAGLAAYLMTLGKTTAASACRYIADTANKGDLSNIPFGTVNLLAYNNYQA

The target of this assay is proteinase K (PK) (Parengyodontium album, UniProt P06873). It is filed as biochemical. The settings on record: PK 600 ug/ml, increasing inhibitor, 3 min; RNaseALERT fluorescence at 520 nm. The method, then:
PK (600 ug/ml) was mixed with increasing amounts of test inhibitor and allowed to react for 3 min at room temperature. RNase A was added and the mixture was incubated for 10 min. The RNase A was mixed with RNaseALERT™ substrate (AMBION®, Catalog No. AM1964) and incubated for 10 min. The fluorescence of the RNaseALERT™ substrate was measured at 520 nm.

Take `O=S(=O)(F)Cc1ccccc1` [PMSF, phenylmethylsulfonylfluoride]: the “inhibition of PK at room temperature” value is “capable of inhibiting PK”.
